Measured values: publication PMC4537502 (Psychopharmacology, 2015)
Where two headings read alike, the source gives them in different places.

By UniProt entry, the sequences of proteins in these tests, tags left out. Where a name states a change or a piece, a line headed by the entry shows the natural chain unless it says otherwise.
UniProt P61169, whole entry: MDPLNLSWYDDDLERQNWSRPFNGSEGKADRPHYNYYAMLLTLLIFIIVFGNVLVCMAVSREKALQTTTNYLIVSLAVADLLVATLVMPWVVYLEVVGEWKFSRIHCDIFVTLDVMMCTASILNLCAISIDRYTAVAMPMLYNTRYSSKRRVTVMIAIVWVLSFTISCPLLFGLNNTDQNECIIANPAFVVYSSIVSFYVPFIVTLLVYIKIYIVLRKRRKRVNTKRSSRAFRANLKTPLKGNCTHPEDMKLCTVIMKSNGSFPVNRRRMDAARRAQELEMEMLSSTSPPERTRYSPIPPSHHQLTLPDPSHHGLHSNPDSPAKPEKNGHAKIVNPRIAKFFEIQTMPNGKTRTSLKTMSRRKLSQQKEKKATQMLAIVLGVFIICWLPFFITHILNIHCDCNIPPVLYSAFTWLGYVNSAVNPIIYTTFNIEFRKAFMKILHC

What was measured:
[1] = target: dopamine D2 receptor (D2R) (Rattus norvegicus, UniProt P61169); conditions: for plateau value of striatum-to-cerebellum ratio of ^11C-raclopride: not statistically significant
Description: Because of limited availability of the test drug, the 60 mg/kg dose group was scanned only with ^11C-raclopride.
After drug administration and about 20 min before each microPET scan, animals were anesthetized with isoflurane (Pharmachemie BV, Haarlem, Netherlands). […] Both tracers were injected as a slow bolus (1 ml of saline-diluted tracer solution infused during a period of 1 min), using a Harvard-style injection pump.
Two rats were scanned in each scan session. They were positioned on heating mats in a microPET Focus 220 system, in transaxial position above each other with their brains in the field of view. Body temperature of the animals was kept close to normal with electronic temperature controllers. Heart rate and oxygen level of the blood during the scan were monitored using pulse oximeters (PulseSense, Nonin). […] A list mode protocol was used with a 76-min acquisition time.
Image reconstruction was performed using microPET Manager 2.3.3.6 (Siemens). The PET data were split according to position along the y-axis, so that a separate data set was acquired for each animal. The list mode data of the emission scans were reframed in a dynamic sequence of 6 × 10, 4 × 30, 2 × 60, 1 × 120, 1 × 180, 4 × 300, and 3 × 600 s (with an additional 960-s frame for the rat that was injected first). The data were reconstructed per time frame employing an iterative reconstruction algorithm (OSEM2D with Fourier rebinning, 4 iterations, and 16 subsets). […] Data sets were corrected for decay, random coincidences, scatter, and attenuation.
In ^11C-raclopride scans of the brain, three-dimensional regions of interest (ROIs) were manually drawn over the left and right striatum and cerebellum, using the program ASIPro 6.3.3.0 (Siemens). […] Time-activity curves (TACs) were generated for these regions (Fig. 1). The results are expressed as dimensionless standardized uptake values (PET-SUV), defined as [(tissue activity concentration (MBq/g) × body weight (g) / injected dose (MBq)]. Brain tissue was assumed to have a specific gravity of 1 g/ml.
Plateau values for the striatum-to-cerebellum ratio were derived from this curve fit.

sigma-1R = conditions: ref Sahlholm et al. [2013]; Pettersson et al. [2010]; cited from earlier work

CCCN1CCC(c2cccc(S(C)(=O)=O)c2)CC1 [pridopidine, 4-[3-(methylsulfonyl)phenyl]-1-propylpiperidine]
plateau value of striatum-to-cerebellum ratio of ^11C-raclopride ([1]; 3 mg/kg pridopidine): appeared to be increased | plateau value of striatum-to-cerebellum ratio of ^11C-raclopride ([1]; 15 mg/kg pridopidine): slight decrease | target-to-nontarget ratio of ^11C-raclopride ([1]; 60 mg/kg pridopidine): significant decrease | D2R occupancy (striatum-to-cerebellum ratio) ([1]; 60 mg/kg pridopidine s.c.): 66% | Target binding of the radioligand (striatum-to-cerebellum ratio at plateau minus one) ([1]; 60 mg/kg pridopidine, mean ± S.D.): 0.96 ± 0.10 | dose for significant D2R occupancy relative to dose required for sigma-1R occupancy ([1]; 60 vs 3 mg/kg): 20 fold | affinity for sigma-1R relative to D2R (sigma-1R): about 100 fold
